Measured values reported in patent US20030207792A1, “Treating cancer” (priority 2002, published 2003).

Key:
Type in all cases: cell-based
HCT116 cells [1] = test: TUNEL assay (ApopTag) for apoptosis 48 h after transfection; details: oligonucleotide 1 μM
Experimental: (§1) Sense and antisense phosphorothionate oligonucleotide with the sequence set out in SEQ1 and SEQ2 respectively were synthesised in a 380B DNA synthesiser. Each oligonucleotide was premixed with lipofectin reagent and diluted in DMEM (Gibco). 6 cm plates of HCT116 cells at 40-50% confluence were rinsed once with 4 ml serum free DMEM and transfected with the oligonucleotides at a final concentration of 1 μM and the lipofectin reagent at a final concentration of 19 μg/ml according to the manufacturer's instructions (Life Technologies Inc., Gaithersburg, Md.). After 4 hours, Foetal Calf Serum (Gibco) was added to a final concentration of 10%. A lipofectin only transfection was performed as a control. Cell extracts were harvested after 48 h and examined by Western blot analysis with a pRb antibody. Equal loading of protein samples was confirmed by Coomassie blue staining or by immunoreactivity with an anti-actin antibody (Sigma). The intensities of the Rb bands were quantised with an image scanner (Molecular Dynamics). […] The treatment with the sense oligonucleotide led to about a 5% reduction in the level of pRb. […] Apoptosis in the cultures 48 h after transfection was tested for using the TUNEL assay. An in situ apoptosis detection kit ApopTag (Oncor, Gaithersburg, Md.) was used as recommended by the manufacturer. […]

pRb = test: Western blot analysis of pRb level in HCT116 cells 48 h after oligonucleotide transfection; details: oligonucleotide 1 μM with lipofectin 19 μg/ml, extracts after 48 h, Western blot band intensity
Experimental: as §1

HCT116 cells [2] = test: Growth curves of transfected HCT116 cultures; details: oligonucleotide 1 μM with lipofectin
Experimental: as §1

Substance: 5′-GTCATGCCGCCCAAAACC-3′
- percentage of TUNEL positive cells (HCT116 cells [1]): 3+/−0.5%
- reduction in the level of pRb (pRb): 5%
- effect on growth (growth curves) compared with the lipofectin-treated control culture (HCT116 cells [2]): no significant effect on growth
